Screens deposited in PubChem by Broad Institute.
esBAF inh = inhibitors of esBAF chromatin remodeling in mouse ES cells | Bmi1-luciferase knock-in reporter, 24 h; 100% = twice the neutral-well signal | reporter increase, % at 12.5 µM | actives 2% (n = 350,000); in the data active means activation above about 40%; inconclusive means no clear call, values can overlap the other calls;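 further: 0% = median of the plate's neutral control wells and 100% = double that signal; a rise in the Bmi1 reporter signal indicates esBAF inhibition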
PglD DTNB = blocks C. jejuni PglD acetyltransferase activity. inhibition, % at 12.5 µM. purified PglD enzyme, DTNB colorimetric CoA detection. actives 0.098% (n = 360,000); in the data active means inhibition above about 16%, passing the limit was not always enough; inconclusive means no clear call, values can overlap the other calls
Wnt bcat act = Wnt/beta-catenin pathway activation. Wnt/beta-catenin reporter cell assay, activator, plate reader. activation, % at 9.35 µM. actives 1.2% (n = 300,000). AID 743398; in the data active means activation above about 30%, passing the limit was not always enough; inconclusive means no clear call, values can overlap the other calls;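 further: 0% = neutral control wells and 100% = positive control wells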
UUG fidelity = modulators of start codon recognition fidelity in yeast; activity score, % at 18.7 µM; actives 0.13% (n = 350,000); S. cerevisiae UUG-firefly luciferase reporter, luminescence/redox ratio;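 active = replicate mean at a twofold rise or more, about +100% in these data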;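 note: firefly luciferase made from a UUG start codon reports start codon fidelity; reporter light over untreated wells divided by growth signal over untreated wells; some hits fall short of that in this replicate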
miR-122 sensor = blocks miR-122 activity in Huh7 sensor cells | Huh7 miR-122 Renilla luciferase sensor, 48 h; neutral wells = 0, positive control = 100 | AID 602342 | actives 0.3% (n = 340,000) | activation (reporter increase), % at 12.5 µM;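 active means mean replicate activation score at least 90 and every replicate individually at or above 90; inconclusive means only one of the two criteria met; inactive means neither criterion met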;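 further: higher luciferase means less miR-122 activity so hits act as miR-122 inhibitors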
MITF TRPM1 HTS = MITF TRPM1 promoter activation in melanoma cells. SK-MEL-5 TRPM1-promoter luciferase, 24 h; % of positive control, neutral wells = 0. activation, % at 12.5 µM. actives 0.75% (n = 300,000). AID 588334;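 active means mean activation of at least 80% with every replicate also reaching 80%; inconclusive means mean reaches 80% but some replicate falls short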;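 further: 0% = neutral control wells and 100% = parthenolide positive control wells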
Numbers without * were called inactive; u = inconclusive; x = no result; [ ] = dose if it differs, or a comment. Sampled rows, rich in hits. Any-hit rate of the full collection: about 2.8%.

SMILES	esBAF inh	PglD DTNB	Wnt bcat act	UUG fidelity	miR-122 sensor	MITF TRPM1 HTS
O=S(=O)(NCCC1=CCCCC1)c1cccc(S(=O)(=O)N2CCOCC2)c1	0	-3	-3	-3	39	10
O=S(=O)(NCCc1ccccc1)c1cccc(S(=O)(=O)N2CCOCC2)c1	3	-2	x	-13	150*	-2
CCC1(C)N=C(c2ccc3c(c2)OCO3)CC(c2ccccc2O)N1 (stereo not drawn)	46*	-2	14	-13	x	40
COc1cccc(C2=NC(C)(C)NC(c3ccccc3O)C2)c1 (stereo not drawn)	x	x	x	x	4	14
O=C(c1ccc(Cl)s1)N1CCc2ccccc21	27	3	x	-12	11	67
Cc1ccc(-c2cc(C(=O)N3CCCc4ccccc43)no2)cc1	72*	0	11	-6	17	u
Cc1ccc(C(=O)N2CCc3ccccc32)cc1	51*	-1	12	-1	5	30
CCc1sc(C(=O)N2CCc3ccccc32)cc1C	x	x	39*	x	x	64
C[C@@H]1CN([C@H](C)CO)C(=O)c2cc(NC(=O)Nc3ccc(F)cc3)ccc2O[C@H]1CN(C)C(=O)Nc1ccc2c(c1)OCO2	21	x	x	x	7[16.7 µM]	x
CO[C@@H]1CN(C)C(=O)c2cc(NC(=O)Nc3ccccc3F)ccc2OC[C@@H](C)N(Cc2ccccc2C(=O)O)C[C@H]1C	-8	-2	x	5	x	x
C[C@@H]1CN([C@H](C)CO)C(=O)c2cc(NC(=O)CCCN(C)C)ccc2O[C@@H](C)CCCCO[C@@H]1CN(C)C(=O)Nc1ccccc1	-4	2	x	2	2[16.7 µM]	x
Cc1ccc(CSc2ccc(-c3cccs3)nn2)cc1	x	x	x	x	x	109*
c1cncc(CSc2ccc(-c3cccs3)nn2)c1	56*	0	14	-8	4	67
CC(C(=O)N1CCCCC1)n1sc2ccccc2c1=O (stereo not drawn)	50*	4	x	-18	5	53
CC(C(=O)N1CCN(C(=O)c2ccco2)CC1)n1sc2ccccc2c1=O (stereo not drawn)	3	3	2	1	x	3
Cc1ccc(/C=C/C(=O)Nc2cc(C)on2)cc1	25	2	35*	-9	-4	75
CCc1ccc(NC(=O)c2cc(C)no2)cc1	55*	3	18	-31	3	76
O=C(Nc1ccc(F)cc1F)c1csc(-c2ccncc2)n1	x	x	21	x	x	3
CCc1ccc(NC(=O)c2cc(CC(C)C)on2)cc1	71*	-3	59*	-18	6	x
Cc1cc(NS(=O)(=O)c2ccc(NC(=O)/C=C/c3ccc(Br)cc3)cc2)no1	5	0	-5	-4	6	-2

The final 7 compounds of the part above are carried over, then new ones follow.
SMILES	esBAF inh	PglD DTNB	Wnt bcat act	UUG fidelity	miR-122 sensor	MITF TRPM1 HTS
CC(C(=O)N1CCCCC1)n1sc2ccccc2c1=O (stereo not drawn)	50*	4	x	-18	5	53
CC(C(=O)N1CCN(C(=O)c2ccco2)CC1)n1sc2ccccc2c1=O (stereo not drawn)	3	3	2	1	x	3
Cc1ccc(/C=C/C(=O)Nc2cc(C)on2)cc1	25	2	35*	-9	-4	75
CCc1ccc(NC(=O)c2cc(C)no2)cc1	55*	3	18	-31	3	76
O=C(Nc1ccc(F)cc1F)c1csc(-c2ccncc2)n1	x	x	21	x	x	3
CCc1ccc(NC(=O)c2cc(CC(C)C)on2)cc1	71*	-3	59*	-18	6	x
Cc1cc(NS(=O)(=O)c2ccc(NC(=O)/C=C/c3ccc(Br)cc3)cc2)no1	5	0	-5	-4	6	-2
O=C(Nc1ccc(F)cc1F)c1csc(-c2cccs2)n1	x	x	35*	x	x	45
C[C@H]1CN([C@@H](C)CO)C(=O)Cc2cc(NS(=O)(=O)c3ccccc3)ccc2O[C@H]1CN(C)C(=O)Nc1ccc2c(c1)OCO2	7	x	x	x	2[16.7 µM]	x
Cc1ccc(NC(=S)NNC(=S)Nc2ccc(C)cc2)cc1	x	-5	12	1	-3	5
CC(C)Cc1cc(C(=O)Nc2ccc(F)cc2F)no1	79*	0	13	-4	-8	70
CC(C)Cc1cc(C(=O)NCc2cccs2)no1	65*	4	u	-22	5	54
Cc1ccc(NC(=S)Nc2cc(C)on2)cc1	14	-5	49*	-7	8	x
COc1ccc(NC(=O)c2cc(CC(C)C)on2)cc1OC	50*	-4	8	3	-7	x
Cc1ccc(S(=O)(=O)N[C@H]2CC[C@@H](CCNC(=O)c3ccc4c(c3)OCO4)O[C@H]2CO)cc1	-1	3	x	9	x	x
C[C@@H]1CN([C@@H](C)CO)C(=O)c2cc(C#CC3CCCC3)cnc2O[C@@H]1CN(C)C(=O)c1ccncc1	-64	2	x	2	-3[16.7 µM]	x
COc1ccc(S(=O)(=O)N(C)C[C@@H]2OCCCC[C@H](C)Oc3ccc(NC(=O)Nc4ccc5c(c4)OCO5)cc3C(=O)N([C@H](C)CO)C[C@H]2C)cc1	2	1	x	-7	-3[16.7 µM]	x
CCc1ccc(NC(=O)c2cc(C)on2)cc1	10	-2	0	-47	-4	u
CCCc1cc(C(=O)Nc2ccc(CC)cc2)no1	77*	8	39*	-21	0	159*
Cc1ccc(NC(=O)c2cc(C)on2)cc1	28	x	x	x	-3	97*
C/C(=C\c1ccccc1)C(=O)Nc1cc(C)on1	56*	1	23	-4	8	u
CCCc1cc(C(=O)Nc2ccc(C)cc2)no1	73*	-5	56*	-8	-2	x
C[C@@H]1CN([C@@H](C)CO)C(=O)c2cc(NC(=O)C3CCCCC3)ccc2O[C@@H](C)CCCCO[C@H]1CN(C)C(=O)c1ccncc1	-4	x	x	x	1[16.7 µM]	x
C/C(=N\Nc1ccc([N+](=O)[O-])cc1)c1ccc(N)cc1	-5	0	9	-15	0	76
CCc1ccc(/C(C)=N\Nc2ccc([N+](=O)[O-])cc2)cc1	44*	2	x	-17	-4	x
CC(=NNc1ccc([N+](=O)[O-])cn1)c1ccc(N)cc1	97*	1	12	-14	x	71
C/C(=N\Nc1nc(C)c(C)s1)c1ccc([N+](=O)[O-])cc1	x	x	1	x	x	19
C[C@@H]1CCCCO[C@H](CN(C)C(=O)Nc2ccc(F)cc2)[C@@H](C)CN([C@@H](C)CO)C(=O)c2cc(NS(=O)(=O)c3cn(C)cn3)ccc2O1	-1	2	x	-6	11[16.7 µM]	x
O=C(c1ccccn1)N1C[C@@H]2[C@H](c3ccccc31)[C@@H](CO)N2C(=O)c1ccccn1	-2	0	x	-9	-4[16.7 µM]	x
C/C(N)=C(/C#N)C(=O)COC(=O)c1cc(C)n(-c2ccc(F)cc2)c1C	67*	0	-3	-11	9	69
COc1cccc(-c2ccc3n(c2=O)C[C@H]2[C@H](CO)[C@@H](C(=O)NC4CCC4)N[C@@H]32)c1	0	0	x	35	-6[16.7 µM]	x
O=[N+]([O-])c1ccc(COc2ccc(CN3CCCC3)cc2)cc1	24	4	10	15	3	100*
CO[C@@H]1CN(C)C(=O)c2ccc(NS(C)(=O)=O)cc2OC[C@@H](C)N(CC2CCCCC2)C[C@@H]1C	-2	2	x	x	x	x
Cc1cnn(-c2cc(Oc3ccccc3)ncn2)c1	65*	-5	x	25	-8	u
COc1ccc(Nc2n[nH]c(C)c2[N+](=O)[O-])cc1	x	x	35*	x	x	79
Nc1nc2ccccc2n1/N=C/c1ccc(-c2ccccc2)o1	u	x	53*	-23	-12	x
CNC(=O)c1ccsc1NC(=O)c1ccc2c(c1)CCCC2	56*	-4	19	-22	-2	52
NC(=O)c1ccsc1NC(=O)c1ccc2c(c1)CCCC2	-39	-2	24	-35	6	-12
